For one molecule, IC50 and Kd results are on record in patent US9242981B2, “Fused pyrazole derivatives as novel ERK inhibitors” (Merck Sharp & Dohme Corp., priority 2010, dated 2016).

Chains of the proteins cited; added tags and fusions are not shown. Residues count along the entry.
UniProt P63085, whole entry: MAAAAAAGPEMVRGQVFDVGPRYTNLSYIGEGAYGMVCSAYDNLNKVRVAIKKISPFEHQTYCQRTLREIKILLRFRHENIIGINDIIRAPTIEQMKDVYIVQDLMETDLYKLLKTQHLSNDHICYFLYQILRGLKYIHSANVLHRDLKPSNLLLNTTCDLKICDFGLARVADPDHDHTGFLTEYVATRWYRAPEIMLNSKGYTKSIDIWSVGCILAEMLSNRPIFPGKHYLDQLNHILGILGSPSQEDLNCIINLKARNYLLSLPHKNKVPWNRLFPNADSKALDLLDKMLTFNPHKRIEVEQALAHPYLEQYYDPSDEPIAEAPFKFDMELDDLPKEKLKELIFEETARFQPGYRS
UniProt P63085, 2-358 limits assumed: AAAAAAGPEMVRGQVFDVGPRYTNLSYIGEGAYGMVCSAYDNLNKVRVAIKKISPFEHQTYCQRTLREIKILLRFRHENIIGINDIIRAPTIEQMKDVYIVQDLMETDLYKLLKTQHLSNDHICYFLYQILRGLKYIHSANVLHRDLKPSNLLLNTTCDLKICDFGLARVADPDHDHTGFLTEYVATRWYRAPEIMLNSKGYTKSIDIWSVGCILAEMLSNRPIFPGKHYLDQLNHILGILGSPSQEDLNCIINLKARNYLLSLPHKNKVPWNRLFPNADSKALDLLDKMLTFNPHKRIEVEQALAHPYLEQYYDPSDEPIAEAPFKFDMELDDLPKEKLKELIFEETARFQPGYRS

The target of one test is Mouse ERK2 protein (Mus musculus (Mouse), UniProt P63085). Kind of test: Coupled MEK1/ERK2 IMAP assay or Active ERK2 IMAP assay. It is filed as biochemical. The note with it: read-out: ERK2 IC50 nM, Table 1, class symbols, 30 μM ATP.
In the next test the target is ERK protein (Mus musculus, UniProt P63085). Kind of test: TdF (Temperature Dependence Fluorescence, thermal shift) assay for ERK. It is filed as binding. Conditions: read-out: Kd TdF nM; Table 1, class symbols; 3 μM ERK protein. An excerpt: The SAR (Structure Activity Relationship) for ERK ligands covered by this invention was interrogated using the TdF (Temperature Dependence Fluorescence) assay or best known as thermal shift assay. (M. W. Pantoliano, et al., “High-density miniaturized thermal shift assays as a general strategy for drug discovery,” J. Biomol. Screen 6 (2001) 429-440) The TdF assay was mainly conducted in the 96-well based CHROMO-4 real time fluorescence plate reader (BioRad). The Sypro Orange (Sigma-Aldrich), environmentally sensitive fluorescence dye, was used to monitor the protein folding-unfolding transition. […]
Compound of interest was first prepared in DMSO stock (typical concentration: 10 mM). […] The fluorescence signals were acquired with excitation and emission wavelengths centered at 490 and 560 nm respectively. […]
The derivation of TdF-based ligand binding affinity constant (Kd) followed closely those previously formulated by Brandts and Lin. […] In brief, the binding constant of the ligand at the Tm is expressed as below:
[formula] where T0 is the midpoint of unfolding for unliganded protein and Tm is the midpoint of unfolding in presence of ligand. […] Following algorithm derived by Winsor and coworker, the T0, ΔHu and ΔCpu can be determined separately from nonlinear regression fitting the protein alone melting curve: […]

Take `Cc1cc(-c2n[nH]c3c2CN(C(=O)NC2CC4CCC(C2)N4Cc2c(F)cccc2F)CC3)ccn1` (centres unmarked): the IC50 (as a rule, the midpoint of a concentration-inhibition curve) at Mouse ERK2 protein was 101 to 1000 nM. For the same molecule, the Kd – broadly, the free concentration of one partner at which half of the binding sites on the other are occupied at equilibrium, for simple one-to-one binding – at ERK protein fell in the range of 101 to 1000 nM.
